Consider four compounds from patent US7105575B2, “Methods for the treatment of neuro- disorders using aminothiol compounds” (Medimmune Oncology Inc., priority 1997, dated 2006).

Bounds are passed on as bounds.

The conditions of series [1]: cited from earlier work.
For series [2], the system named is cisplatin-induced renal failure. Description: Example 1 case study: amifostine given after cisplatin-induced renal failure. The conditions noted are these: for overall clinical status (in words) / renal function (in words): amifostine 400 mg iv for 3 days; for renal function (in words): started after renal failure had developed.
In series [3] the test system is DNA of salmon sperm. The conditions noted are these: compounds present concomitantly with cisplatin, in vitro; cited from earlier work.
The subject of series [4] is severe neurotoxicities of right arm, leg pain. Description: Example 2 case study: amifostine for chemotherapy-induced neurotoxicities (carboplatinum, vinblastine, methotrexate). The format is in vivo, human. From the text:
The patient who is a survivor of the concentration camps of World War II, was diagnosed with bladder cancer that had metastized to the lungs. They received 3 cycles carboplatinum, vinblastine and methotrexate. While in the concentration camp, the patient suffered damage to their lower legs which caused them constant pain.

The subject of series [5] is neurotoxicities. Put plainly: Example 4 case study: amifostine in MDS patient with neurotoxicities from CHOP chemotherapy. The series is classed as in vivo, human.
In series [6] the test system is neurotoxicities / neuropathy.
The test system of series [7] is cells. The conditions noted are these: compounds incubated with cells one hour after cisplatin exposure; cited from earlier work.
Series [8] has as its system cisplatin nephrotoxicity. To be noted: amifostine given 30 minutes after cisplatin; cited from earlier work.
Series [9] relates to cisplatin neuropathy. To be noted: cited from earlier work.
Series [10] relates to paclitaxel neuropathies and arthralgias/myalgias. To be noted: pretreatment with amifostine, escalating doses of paclitaxel; cited from earlier work.
The test system of series [11] is V79-B310H Chinese hamster cells. The conditions noted are these: cited from earlier work.
Setting [12] is: paclitaxel 135 mg/m^2 iv day 1, cisplatin 100 mg/m^2 intraperitoneally day 2, before amifostine.
The mark [13] stands for this setting: 500 mg amifostine over 10 minutes.

As for `N.N.[Cl][Pt][Cl]` [cisplatin, cis-diamminedichloroplatinum], the “potential permanent loss of normal renal function” value in series [1] (nephrotoxicity produced by drugs such as cisplatin (Kemp 1996)) is at least 50%. The patients with myelosuppression in [1] (patients treated with cisplatin) is 25–30%. For the same compound, the “maximum serum creatinine level after administration of cisplatin (FIG. 1)” value in series [2] (FIG. 1, starting level about 1.0 mg/dL) is reported as “about 5.5 mg/dL”. For the same compound, in [2] (setting [12]), the “BUN by hospital day 5 after chemotherapy” value amounted to 39 mg/dL and the “serum creatinine by hospital day 5 after chemotherapy” value is 4.9 mg/dL.
As to `NCCCNCCSSCCNCCCN` [WR-33278], the “platination of salmon sperm DNA, co-incubation” value (shortened to “platination of salmon sperm DNA”) in series [3] is “caused a decrease in the platination”.
For the compound `NCCCNCCSP(=O)(O)O` [amifostine, S-2-(3-aminopropylamino)ethyl dihydrogen phosphorothioate], in series [4] (setting [13]), the “leg pain two days after infusion” value is “the pain in their legs was getting better” and the “walking ability two days after infusion” value was “able to walk without their cane”. For the same compound, in series [4] (person, 500 mg amifostine in 50 cc saline over 10 minutes), the “pain reported two days after infusion” value was “no pain for the first time in months”. Besides, in [4] (subsequent Ethyol infusions), the “arm pain after subsequent infusions” value is given as “remained without arm pain” and the “leg pain after subsequent infusions” value was “The pain in their legs has improved”. Further, in series [4] (subsequent Ethyol infusions, before: 2 patches of 100 mcg/hr), the “analgesic need (Duragesic patches)” value is reported as “managing with only one Duragesic Patch”. Besides, the “general status on continued treatment” value in [5] (continues on Ethyol for MDS) is “doing well”. The “neurotoxicities, patient statement after five weeks” value in series [5] (person, Ethyol 840 mg Monday, Wednesday, Friday each week, neurotoxicities for eight years after CHOP) is given as “neurotoxicities were better since receiving amifostine”. Moreover, the “neuropathy one month after termination” value in series [6] (after four amifostine treatments) was “neuropathy remained stable”. Moreover, the “tolerability of first infusion” value in series [6] (person, amifostine 970 mg in 50 cc saline over 10 minutes, premedicated with Zofran and Decadron) was “tolerated this treatment without problems”. In addition, in series [3], the “platination of salmon sperm DNA” value is “caused a decrease in the platination”. In series [7], the “protection from cytostatic effect of cisplatin” value was “neither WR-1065 nor WR-2721 (amifostine) could protect cells”. Also, in series [8], the protection from nephrotoxicity entry is “did not protect mice at all from nephrotoxicity”. Moreover, the “incidence of cisplatin neuropathies” value in series [9] (pretreatment with amifostine, prospective evaluation (Mollman 1988)) is reported as “significantly lower incidence of cisplatin neuropathies”. Further, in series [9] (pretreatment, randomized trial cisplatin and cyclophosphamide±amifostine, advanced ovarian cancer (Kemp 1996)), the “occurrence and severity of cisplatin neuropathy” value was “significantly reduce the occurrence and severity of cisplatin neuropathy”. For the same compound, the tolerated paclitaxel dose entry in series [10] is “allowed both higher single doses and cumulative doses of paclitaxel to be administered without the occurrence of dose limiting neuropathies and arthralgias/myalgias”. Moreover, the “serum creatinine level following treatment with amifostine (FIG. 1)” value in series [2] (FIG. 1, start about 1.0, maximum about 5.5 mg/dL after cisplatin) is “about 2.8 mg/dL”. Further, in [2] (about 8 days after second discharge, when amifostine 400 mg iv was given again), the “creatinine at further amifostine dose after follow-up clinic visit” value came out at 2.5 mg/dL. In series [2] (after 3 days of amifostine 400 mg iv, peak 6.0 mg/dL before amifostine), the “serum creatinine by hospital day 12 / discharge day 13” value was found to be 2.8 mg/dL. Besides, the “serum creatinine approximately 6 months later” value in series [2] (after final 2-week course of amifostine 400 mg, 5 doses) stood at 2.0 mg/dL. For the same compound, in [2], the “overall clinical status (in words)” value is on record as “improvement in their overall clinical status” and the “renal function (in words)” value was “partial recovery of their renal function”. Also, in series [2] (listed as Amifostine), the “renal function (in words)” value is on record as “partially reversed the toxic renal effects of cisplatin” and the “overall clinical status (in words)” value is on record as “overall clinical status improved”. Further, the tolerability entry in series [2] (amifostine 400 mg per day iv on post-cisplatin days 7, 8, 9) is “tolerated therapy well, with only mild nausea”. For the same compound, the “serum creatinine on day 3 of amifostine therapy” value in series [2] (patient, amifostine 400 mg per day iv on post-cisplatin days 7, 8, 9, peak 6.0 mg/dL before amifostine) is given as 4.6 mg/dL. Besides, the “renal function during readmission (in words)” value in series [2] (readmission, 5 days, amifostine 400 mg iv on hospital day 2) was “renal function stabilized”. For the same compound, the tolerability result in series [2] (readmission, amifostine 400 mg iv once on hospital day 2, ondansetron 24 mg as needed) was “tolerated the treatment well”.
Take `NCCCNCCS` [WR-1065, S-2-(3-aminopropylamino) ethanethiol]: the “protection against cis-DDP cytotoxicity” value in [11] (administered before, during and immediately after cisplatin treatment) was “protects against cytotoxicity”. Further, in series [11], the “protection during versus immediately following cisplatin exposure” value is recorded as “little if any difference in the magnitude of protection”. The “timing of maximum protection” value in series [11] (presence in cell growth medium relative to cisplatin exposure) is reported as “maximum protection was obtained when WR-1065 was present in the cell growth medium for 30 minutes prior to exposure”. The “platination of salmon sperm DNA” value in series [3] is reported as “caused a decrease in the platination”. Moreover, the “protection from cytostatic effect of cisplatin” value in series [7] is “neither WR-1065 nor WR-2721 (amifostine) could protect cells”.
